The values that follow come from patent US6632977B2 (priority 1996, dated 2003).

Amino acid sequences for entries named in this document (tags omitted). A change or cut given only in a name is not applied to a line headed by its entry.
UniProt P32300, whole entry: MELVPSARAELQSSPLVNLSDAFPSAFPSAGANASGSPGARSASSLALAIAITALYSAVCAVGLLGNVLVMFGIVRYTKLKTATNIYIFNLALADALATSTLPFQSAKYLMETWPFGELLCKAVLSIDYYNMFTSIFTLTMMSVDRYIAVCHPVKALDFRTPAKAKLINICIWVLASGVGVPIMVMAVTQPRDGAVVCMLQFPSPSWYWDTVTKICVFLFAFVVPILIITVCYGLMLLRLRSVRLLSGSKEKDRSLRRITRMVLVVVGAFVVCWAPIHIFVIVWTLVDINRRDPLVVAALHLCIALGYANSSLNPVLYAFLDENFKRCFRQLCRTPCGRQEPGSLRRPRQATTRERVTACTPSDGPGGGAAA

The target of experiment [1] is T1, δ receptor (Mus musculus, UniProt P32300). Conditions: for Deltorphin I Bmax: kappa receptor gene line.
Experiment [2] has as its target T1, δ receptor.

Read-outs that look alike come from different tables or passages of the source.

Consider `CC(C)[C@H](NC(=O)[C@H](CC(=O)O)NC(=O)[C@H](Cc1ccccc1)NC(=O)[C@@H](C)NC(=O)[C@@H](N)Cc1ccc(O)cc1)C(=O)N[C@H](C(=O)NCC(N)=O)C(C)C` [Deltorphin I, D-Ala^2deltorphin I], for which the “change in binding of the delta ligands” value on δ receptor [1] (kappa mutant animals with respect to wild animals) is reported as “no change in the binding”. In addition, the “Deltorphin I Bmax” value stood at 0.099 pmole/mg proteins at δ receptor [1] (heterozygous +/−), 0.090 pmole/mg proteins on δ receptor [1] (homozygous −/−) and 0.089 pmole/mg proteins at δ receptor [1] (wild +/+). Further, at δ receptor [2] (kappa receptor deficient mice), the “distribution of binding sites” value is “not altered”. For the same compound, at δ receptor [2] (−/− MOR mouse versus wild-type), the “number of δ receptors detected by autoradiography” value is recorded as “lower number of receptors”.
